B1: Eukaryotic translation initiation factor 4E-binding protein 1 (Homo sapiens), Q13541 (parent)
chain: MSGGSSCSQTPSRAIPATRRVVLGDGVQLPPGDYSTTPGGTLFSTTPGGTRIIYDRKFLMECRNSPVTKTPPRDLPTIPGVTSPSSDEPPMEASQSHLRNSPEDKRAGGEESQFEMDI

Variants of: B1
Conditions: with rptor_human RPTOR

Variant | effect of a mutation on the interaction
E111A | with no effect
S112A | decreasing interaction strength
Q113A | disrupting interaction strength
F114A | disrupting interaction strength
E115A | with no effect
M116A | disrupting interaction strength
D117A | decreasing interaction strength
I118A | decreasing interaction strength

From IntAct's records for PubMed 29236692
